Measured values as given in US9580449B2, “Compositions and methods for the production of pyrimidine and pyridine compounds with BTK inhibitory activity” (Merck Patent GmbH, priority 2011, dated 2017).

The chains behind the UniProt entries cited, without tags or fusion partners. Where a name states a change or a piece, a line headed by the entry shows the natural chain unless it says otherwise.
UniProt Q06187: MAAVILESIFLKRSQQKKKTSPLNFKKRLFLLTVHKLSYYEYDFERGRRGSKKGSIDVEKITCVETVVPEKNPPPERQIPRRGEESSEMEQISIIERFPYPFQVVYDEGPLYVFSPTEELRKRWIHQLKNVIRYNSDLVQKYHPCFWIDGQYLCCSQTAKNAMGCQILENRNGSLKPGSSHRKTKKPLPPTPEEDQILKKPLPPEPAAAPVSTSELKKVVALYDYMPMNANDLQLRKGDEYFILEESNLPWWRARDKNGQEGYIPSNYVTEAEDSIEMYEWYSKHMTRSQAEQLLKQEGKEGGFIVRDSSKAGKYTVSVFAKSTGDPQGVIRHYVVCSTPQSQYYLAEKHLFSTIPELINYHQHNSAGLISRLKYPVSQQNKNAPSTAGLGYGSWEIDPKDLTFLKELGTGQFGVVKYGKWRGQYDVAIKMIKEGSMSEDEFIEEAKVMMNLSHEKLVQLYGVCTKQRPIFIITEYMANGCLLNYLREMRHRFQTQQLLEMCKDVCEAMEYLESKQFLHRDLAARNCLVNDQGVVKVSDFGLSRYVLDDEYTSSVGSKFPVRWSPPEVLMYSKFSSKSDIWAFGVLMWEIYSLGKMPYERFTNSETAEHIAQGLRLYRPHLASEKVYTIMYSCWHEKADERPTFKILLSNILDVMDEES

Biological target: BTK (Homo sapiens (Human), UniProt Q06187)
Assay: Time Dependent Human Whole Blood IC50 assay
Assay type: cell-based
Details: read-out: Time Dependent Human Whole Blood BTK Enzyme Assay IC50
Experimental: Compounds described by embodiments of the present invention were assayed using a human whole blood assay. The data from the same is recorded in Table 2 within the column labeled: “Time Dependent Human Whole Blood BTK Enzyme Assay IC50”.

C=CC(=O)N1CC[C@@H](Nc2ncnc(N)c2-c2ccc(Oc3ccccc3)cc2)C1 [A1, (R)-1-(3-((6-amino-5-(4-phenoxyphenyl)pyrimidin-4-yl)amino)pyrrolidin-1-yl)prop-2-en-1-one] was tested, and the IC50 was less than 1000 nM.
